Assay results reported in patent US8084457B2, “Pharmaceutically active 4,6-disubstituted aminopyrimidine derivatives as modulators of protein kinases” (Lead Discovery Center GmbH, priority 2003, dated 2011).

Chains of the proteins cited; added tags and fusions are not shown.
UniProt P50750, whole entry: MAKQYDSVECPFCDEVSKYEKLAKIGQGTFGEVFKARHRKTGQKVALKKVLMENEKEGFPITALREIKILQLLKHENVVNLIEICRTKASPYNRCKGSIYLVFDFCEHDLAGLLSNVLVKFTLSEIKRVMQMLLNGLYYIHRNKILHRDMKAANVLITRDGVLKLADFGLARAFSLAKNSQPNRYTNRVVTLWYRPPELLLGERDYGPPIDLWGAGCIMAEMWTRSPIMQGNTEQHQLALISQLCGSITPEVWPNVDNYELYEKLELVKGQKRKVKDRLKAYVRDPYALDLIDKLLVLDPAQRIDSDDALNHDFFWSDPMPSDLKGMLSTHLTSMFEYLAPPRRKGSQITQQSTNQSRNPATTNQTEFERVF
UniProt O60563, whole entry partner: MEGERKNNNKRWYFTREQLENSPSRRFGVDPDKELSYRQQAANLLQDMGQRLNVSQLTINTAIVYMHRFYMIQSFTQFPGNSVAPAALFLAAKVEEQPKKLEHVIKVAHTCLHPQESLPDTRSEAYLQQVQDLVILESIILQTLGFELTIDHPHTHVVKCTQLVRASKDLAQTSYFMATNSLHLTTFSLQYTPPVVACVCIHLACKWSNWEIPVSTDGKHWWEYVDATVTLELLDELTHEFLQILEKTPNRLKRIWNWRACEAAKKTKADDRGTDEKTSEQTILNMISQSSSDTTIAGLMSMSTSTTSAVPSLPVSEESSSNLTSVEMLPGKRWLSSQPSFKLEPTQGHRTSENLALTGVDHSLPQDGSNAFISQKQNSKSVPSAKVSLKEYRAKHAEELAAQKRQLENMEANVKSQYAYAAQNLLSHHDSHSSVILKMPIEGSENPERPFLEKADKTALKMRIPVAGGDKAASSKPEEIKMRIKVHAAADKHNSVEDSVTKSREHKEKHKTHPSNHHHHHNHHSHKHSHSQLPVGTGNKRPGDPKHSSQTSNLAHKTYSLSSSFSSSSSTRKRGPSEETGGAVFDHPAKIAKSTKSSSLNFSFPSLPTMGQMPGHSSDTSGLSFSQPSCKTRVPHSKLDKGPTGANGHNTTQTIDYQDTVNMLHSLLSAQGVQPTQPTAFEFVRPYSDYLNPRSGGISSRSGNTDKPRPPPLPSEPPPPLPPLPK

Molecular target: CDK9/Cyclin T1 (Homo sapiens, UniProt P50750)
Assay: Kinase assay using CDK9/Cyclin T1
Conditions: read-out: CDK9 (activity range)

Row | Structure (SMILES) | IC50
1 | CCCS(=O)(=O)N(c1ccc(Nc2ncnc(-c3ccccc3OC)c2C)cc1)S(=O)(=O)CCC | 10 to 250 µM
2 | COc1ccccc1-c1cc(Nc2ccc(NC(=O)c3cc4ccccc4cc3O)cc2)ncn1 | 1 to 10 µM
